# Measured affinities in a library of Ab-14 heavy chain variants

Reference: Li et al. 2023, doi:10.1038/s41467-023-39022-2. File: FLAb, binding data.

Antigen: PDVDLGDISGINAS, a 14-residue peptide of the SARS-CoV-2 spike HR2 region.

Ab-14 is the parent antibody, in scFv form: VH, then a (GGGGS)3 linker, then VL. The light chain is unchanged in all variants.
VH: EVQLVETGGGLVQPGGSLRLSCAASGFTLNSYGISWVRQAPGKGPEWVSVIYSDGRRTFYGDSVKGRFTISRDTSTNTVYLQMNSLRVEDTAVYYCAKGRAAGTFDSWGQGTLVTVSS
VL: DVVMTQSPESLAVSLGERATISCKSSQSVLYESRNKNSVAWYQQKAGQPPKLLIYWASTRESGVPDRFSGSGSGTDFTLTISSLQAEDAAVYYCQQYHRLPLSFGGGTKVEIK

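The variants were designed computationally from a first round of random CDR variants and then made and measured. Group labels follow the data file (En: ensemble of fine-tuned language models; HC: hill climbing; Gen: genetic algorithm; Gibbs: Gibbs sampling; a sequence that several methods proposed may carry one label only). The scFvs were displayed on barcoded MATa yeast, the peptide on MATalpha yeast. The frequency of each diploid, read from paired DNA barcodes, reflects how well the two displayed proteins bind. Read counts were normalised to the haploid input and turned into Kd by a linear fit to BCL2-family pairs of known affinity, for each replicate. The assay was run in six technical replicates.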

Variants are written as CDR1, CDR2 and CDR3 of the heavy chain (limits as in the source). Parent: GFTLNSYGIS, VIYSDGRRTFYGDSVK, GRAAGTFDS. This list holds designs with more than six substitutions. The Kd shown is the geometric mean over detected replicates; a lower Kd is a better binder. Where no diploid with the target was found in any replicate, the entry reads "nd": below detection, most likely a poor binder, though not proof of it. The range of this assay differs from that of the first round, and the authors advise against merging the two. Background: pairings of all heavy chain designs with three empty control strains gave a value in 1% of cases (median 120 nM, 5th percentile 7.0 nM). Values in that range, when seen in few replicates, are hard to tell from nonspecific mating. The control count says in how many pairings with the empty strains this scFv gave a signal. In the paper, a design with two or fewer of six values counts as a poor binder.

- GFDLDEYGIS | VIYADGVRTAYADDVK | GNNAGTFDV [En_Gen] -> 340 pM (6 of 6 replicates; controls 0 of 18)
- GFDLDEYGIS | VIYADGRRTFYIDSVK | GETAGTFDE [En_HC] -> 3.3 nM (5 of 6 replicates; controls 0 of 18)
- GFNLESYGIS | VIYADGKRSSVSNSVK | GQLGNAFDM [En_Gibbs] -> 890 nM (2 of 6 replicates; controls 0 of 18)
- GFSLDEYGIS | VIYADGRRTFYADSVK | GNEAGTFDS [En_HC] -> 240 pM (6 of 6 replicates; controls 0 of 18)
- GFDLNDYGIS | VIYADGRRTAYIDSVK | GEVAGTFDQ [En_HC] -> 3.2 nM (6 of 6 replicates; controls 0 of 18)
- GFDLDEYGIS | VIYADGKRTAYADSVK | GGNAGTFDQ [En_Gen] -> 330 pM (6 of 6 replicates; controls 0 of 18)
- GFDLNEYGIS | VIYADGQRKAYADSVK | GNVAGTFDV [En_Gen] -> 220 pM (6 of 6 replicates; controls 0 of 18)
- GFDLNEYGIS | VIYADGVRTAYIDSVK | GQNAGTFDI [En_Gen] -> 240 pM (6 of 6 replicates; controls 1 of 18)
- GFDLNEYGIS | VIYADGMRTAYADDVK | GEIAGTFDV [En_Gen] -> 250 pM (6 of 6 replicates; controls 0 of 18)
- GFDLDEYGIS | VIYADGKRTAYADSVK | GQNAGTFDM [En_Gen] -> 820 pM (6 of 6 replicates; controls 1 of 18)
- GFDLNEYGIS | VIYADGRRTAYDDSVK | GQVAGTFDA [En_HC] -> 5.8 nM (6 of 6 replicates; controls 1 of 18)
- GFDLNEYGIS | VIYADGKRTFYSDKVK | GNVAGTFDI [En_HC] -> 220 pM (6 of 6 replicates; controls 0 of 18)
- GFDLNEYGIS | VIYADGRRTQYIDSVK | GEVAGTFDI [En_HC] -> 1.7 nM (6 of 6 replicates; controls 0 of 18)
- GFNIQEYGIS | VIYADGKRTAYAEPVK | GEIGGTIDT [En_Gibbs] -> 130 nM (2 of 6 replicates; controls 0 of 18)
- GFDLNEYGIS | VIYADGKRTAYADSVK | GSVAGTFDV [En_Gen] -> 210 pM (6 of 6 replicates; controls 0 of 18)
- GFDLDEYGIS | VIYADGQRTAYADDVK | GENAGTFDV [En_Gen] -> 1.4 nM (6 of 6 replicates; controls 0 of 18)
- GFDLDEYGIS | VIYADGKRTAYADDVK | GNVAGTFDT [En_Gen] -> 780 pM (6 of 6 replicates; controls 0 of 18)
- GFDLNEYGIS | VIYADGKRTAYADSVK | GNHAGTFDI [En_Gen] -> nd (0 of 6 replicates; controls 1 of 18)
- GFNLDEYGIS | VIYADGRRTFYADSVK | GQVAGTFDI [En_HC] -> 160 pM (6 of 6 replicates; controls 0 of 18)
- GFDLLEYGIS | VIYADGQRVAYFNNVK | GKNGAFFSN [En_Gibbs] -> nd (0 of 6 replicates; controls 0 of 18)
- GFDLDEYGIS | VIYADGRRTAYSDSVK | GETAGTFDQ [En_Gen] -> 410 pM (6 of 6 replicates; controls 0 of 18)
- GKDLEEYGIS | VIYADGRRSDYTDNVK | GHNGNIFMM [En_Gibbs] -> nd (0 of 6 replicates; controls 0 of 18)
- GYDIDEYGIS | VIYADGQRTAYQNNVK | GEQDGLMTY [En_Gibbs] -> nd (0 of 6 replicates; controls 0 of 18)
- GFDLNEYGIS | VIYADGVRTFYVDSVK | GEVAGTFDS [En_HC] -> 260 pM (6 of 6 replicates; controls 1 of 18)
- GFDLNEYGIS | VIYADGVRTSYADSVK | GNTAGTFDV [En_Gen] -> 430 pM (6 of 6 replicates; controls 0 of 18)
- GFDLDEYGIS | VIYADGMRTVYADSVK | GTNAGTFDV [En_Gen] -> 240 pM (6 of 6 replicates; controls 0 of 18)
- GFDLDEYGIS | VIYADGKRTAYADSVK | GEVAGTFDL [En_Gen] -> 1.9 nM (6 of 6 replicates; controls 1 of 18)
- GFDLDEYGIS | VIYADGQRTAYADDVK | GGNAGTFDV [En_Gen] -> 780 pM (6 of 6 replicates; controls 0 of 18)
- GFDLNEYGIS | VIYADGRRTAYADDVK | GKNAGTFDV [En_Gen] -> 82 pM (6 of 6 replicates; controls 1 of 18)
- GFDLDEYGIS | VIYADGKRTAYANDVK | GEVAGTFDV [En_Gen] -> nd (0 of 6 replicates; controls 0 of 18)
- GFDLNEYGIS | VIYADGQRTAYTDSVK | GNNAGTFDV [En_Gen] -> 390 pM (6 of 6 replicates; controls 0 of 18)
- GFDLNEYGIS | VIYADGRRTFYADSVK | GNNAGTFDK [En_HC] -> 600 pM (6 of 6 replicates; controls 2 of 18)
- GFDLNEYGIS | VIYADGKRTFYTDSVK | GTNAGTFDM [En_HC] -> 380 pM (6 of 6 replicates; controls 0 of 18)
- GFDLDEYGIS | VIYADGMRTAYSDSVK | GNNAGTFDT [En_Gen] -> nd (0 of 6 replicates; controls 0 of 18)
- GFDLDEYGIS | VIYADGKRTAYADSVK | GETAGTFDV [En_Gen] -> 1.3 nM (6 of 6 replicates; controls 0 of 18)
- GFELSEYGIS | VIYADGHRSFVTDDVK | GQNGGAFNV [En_Gibbs] -> nd (0 of 6 replicates; controls 0 of 18)
- GESLLEYGIS | VIYADGSRVAYTNAVK | GHHAGAFDV [En_Gibbs] -> nd (0 of 6 replicates; controls 0 of 18)
- GFGLMDYGIS | VIYADGMRRSYANSFK | GAHAGTFDF [En_Gibbs] -> 46 nM (1 of 6 replicates; controls 0 of 18)
- GFDLNEYGIS | VIYADGRRTSYIDSVK | GTNAGTFDS [En_HC] -> 160 pM (6 of 6 replicates; controls 0 of 18)
- GFDINEYGIS | VIYADGVRRAYAQQVK | GHGEVVSMD [En_Gibbs] -> nd (0 of 6 replicates; controls 2 of 18)
- GFILNEYGIS | VIYADGMRTSYAQNVK | GYNGSDLTK [En_Gibbs] -> nd (0 of 6 replicates; controls 0 of 18)

Picked from the list: the 4 lowest averages where every replicate gave a value.

- GFDLNEYGIS | VIYADGRRTAYADDVK | GKNAGTFDV [En_Gen] -> 82 pM (6 of 6 replicates; controls 1 of 18)
- GFDLNEYGIS | VIYADGRRTSYIDSVK | GTNAGTFDS [En_HC] -> 160 pM (6 of 6 replicates; controls 0 of 18)
- GFNLDEYGIS | VIYADGRRTFYADSVK | GQVAGTFDI [En_HC] -> 160 pM (6 of 6 replicates; controls 0 of 18)
- GFDLNEYGIS | VIYADGKRTAYADSVK | GSVAGTFDV [En_Gen] -> 210 pM (6 of 6 replicates; controls 0 of 18)